Among the data in patent publication US8241562B1, “Enhanced toxic cloud knockdown spray system for decontamination applications” (dated 2012) are soluble in water and time to dissolve values, retold here.

For data set [1] the following is noted: 25° C.; cited from earlier work.
A short description of data set [2]: Time to dissolve in Part A. The following applies: after addition to Part A.

Consider `CC(=O)N(CCN(C(C)=O)C(C)=O)C(C)=O`, for which the soluble in water in data set [1] was 0.1%.
In the case of “sodium percarbonate [milled sodium percarbonate]”, the time to dissolve entry in data set [2] is reported as “about 2 minutes”.
Still for that read-out and setting: the value for “sodium percarbonate [sodium percarbonate]” was “approximately 30 minutes”.
